# Measured affinities in a library of Ab-95 light chain variants

From the AlphaSeq antibody data of Engelhart et al. 2022 (doi:10.1038/s41597-022-01779-4), copy in the FLAb collection.

Antigen: PDVDLGDISGINAS, a 14-residue peptide of the SARS-CoV-2 spike HR2 region.

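Phage display of a naive human antibody library on the peptide gave the parent. Variants in AAYL52 differ from the parent at up to three CDR positions; double and triple changes were sampled at random. In AlphaSeq, yeast of one mating type display the scFv and yeast of the other type display the target. The frequency of each diploid, read from paired DNA barcodes, reflects how well the two displayed proteins bind. Each replicate has its own calibration line, from reference interactions of the BCL2 family. The assay was run in three technical replicates.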

Parent scFv Ab-95: VH joined to VL by three GGGGS repeats. Changes lie in the light chain CDRs alone.
VH: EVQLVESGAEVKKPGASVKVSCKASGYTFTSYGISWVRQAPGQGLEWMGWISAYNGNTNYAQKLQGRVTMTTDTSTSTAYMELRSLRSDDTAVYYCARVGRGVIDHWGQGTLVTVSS
VL: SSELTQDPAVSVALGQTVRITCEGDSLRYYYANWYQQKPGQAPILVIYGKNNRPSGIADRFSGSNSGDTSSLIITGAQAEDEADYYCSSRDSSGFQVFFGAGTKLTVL

The parent's light chain CDRs are EGDSLRYYYAN, GKNNRPS, SSRDSSGFQVF; each variant's own CDRs replace them letter for letter. Every variant below is changed at F95 of the VL (sequential numbering). The Kd shown is the geometric mean over detected replicates; a lower Kd is a better binder. "nd" means that the variant was in the library but no mating with the target was seen in any replicate; the authors take this as a sign of poor binding, and no number exists.

* EGDSLRYYYAN | GKNNRPS | SSRELSGGQVF -> 1.6 µM (2 of 3 replicates)
* EGDSLRYYYAN | GKNNRPS | SSRDSSGKQVF -> 690 nM (3 of 3 replicates)
* EGDNLRYRYAN | GKNNRPS | SSRDSSGKQVF -> 280 nM (3 of 3 replicates)
* EGDSLRYYYAN | GKNNRPS | SSRDMSMDQVF -> 520 nM (3 of 3 replicates)
* EGDSLRYYYAN | GDNNRPS | SSRDSSKLQVF -> 45 nM (3 of 3 replicates)
* EGDSLRYYYAN | GKNNRPS | SSRDSSGGYVF -> 3.4 µM (3 of 3 replicates)
* EGCSLRYYYAN | GKNNRPS | SSRDSSGVQVR -> 26 µM (2 of 3 replicates)
* EGDSLRYYYAN | GKNNRDY | SSRDSSGTQVF -> 620 nM (3 of 3 replicates)
* LGDSLRYYYAN | GKNNRPS | HSRDSSGVQVF -> 1.1 µM (3 of 3 replicates)
* EGDSLRYYYAN | WKNNRPS | SSRDSSGGQKF -> nd (0 of 3 replicates)
* EWDSLRYYYAN | GKANRPS | SSRDSSGAQVF -> 31 µM (2 of 3 replicates)
* EGDSLRYYYAN | GKNNRPS | SSRDSSGVPVY -> 450 nM (3 of 3 replicates)
* EGDSLRYYYAN | GKNNTPS | SSKDSSGKQVF -> 13 µM (2 of 3 replicates)
* EGDSIRYYYAN | GKNNRPS | SSRDSSQYQVF -> 490 nM (3 of 3 replicates)
* EGDSLDYYYAN | GKNNRPL | SSRDSSGQQVF -> 280 nM (3 of 3 replicates)
* EGDSLRYIYAN | GKNNRPS | SSRDSSGGQVY -> 2.4 µM (3 of 3 replicates)
* EGDSLRYMYAN | GKNNRPS | SSRDSSGIQVI -> 4.1 µM (2 of 3 replicates)
* EGDSLRYYYAN | GKNNRPS | SSRDSGGQHVF -> 830 nM (3 of 3 replicates)
* EGDSLRQYYAN | GKNNRPS | SSRDSSGAVVF -> 470 nM (3 of 3 replicates)
* EGDSLRYYYAN | EKNNRPS | SSRDSSGTQVA -> 940 nM (2 of 3 replicates)
* EGDSLRYYYAN | GKNNRPD | SSRDVSGEQVF -> 280 nM (3 of 3 replicates)
* EGDCLRYYYAN | GKNNRPS | SSRDSSGGQWF -> 7.0 µM (2 of 3 replicates)
* EGDSLRYYYAN | GKNNRPS | SSSDSSGGYVF -> 1.2 µM (3 of 3 replicates)
* EGDSLRYYYAN | GYNNRPS | SSTDSSGRQVF -> 19 µM (1 of 3 replicates)
* EGDSLRYYYAN | GKNNRPS | SSRDSSGWIEF -> 150 nM (3 of 3 replicates)
* EEDSLRYYYAN | GKNNRPS | SSRDSSGKQNF -> nd (0 of 3 replicates)
* EGDSLRYYYAN | GKNNRPA | SSRCSSGHQVF -> 1.5 µM (3 of 3 replicates)
* EGDSLRYYYAL | GKNNRPS | SSRDSSGSQVF -> nd (0 of 3 replicates)
* AGDSLRYYYAR | GKNNRPS | SSRDSSGNQVF -> 7.3 µM (1 of 3 replicates)
* EGDSCRYVYAN | GKNNRPS | SSRDSSGAQVF -> nd (0 of 3 replicates)
* EGDSLRYYYAN | GKNNRNS | SSRDSSGHGVF -> nd (0 of 3 replicates)
* EGDSLRYYYAN | GKNNRHS | SSRDSSGRQNF -> 17 µM (3 of 3 replicates)
* EGDSQRYYYAN | GKNNRPS | SSRDYSGIQVF -> 22 µM (3 of 3 replicates)
* EGDSLRYYYAN | GKNCRPS | SSRSSSGKQVF -> 1.3 µM (3 of 3 replicates)
* EGDSLRYYYSN | GKNNRPS | SSRDSSGPLVF -> nd (0 of 3 replicates)
* EGDSLRYYYSN | GKNNRPS | FSRDSSGVQVF -> nd (0 of 3 replicates)
* EGDSLRYYYAN | GKNSRPS | SSRDSSGSQVF -> 450 nM (3 of 3 replicates)
* EGDSLRYYYAN | GWGNRPS | SSRDSSGHQVF -> 570 nM (1 of 3 replicates)

For reference, the parent read 200 nM as the reference entry and 180 nM as a member of this library. Background: pairings of library AAYL52 with three empty control strains gave a value in 28% of cases (median 8.2 µM, 5th percentile 800 nM). Values in that range, when seen in few replicates, are hard to tell from nonspecific mating.